# Measured affinities in a library of Ab-95 light chain variants

Reference: Engelhart et al. 2022, doi:10.1038/s41597-022-01779-4. File: FLAb, binding data.

Target peptide (SARS-CoV-2 spike, HR2 region): PDVDLGDISGINAS

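Phage display of a naive human antibody library on the peptide gave the parent. The library (AAYL52) carries one to three amino acid substitutions per variant, with no insertions or deletions. Affinity was read by AlphaSeq, a pooled yeast mating assay with surface-displayed partners. Binding brings cells together so that they mate, and sequencing counts the barcode pairs among the diploids. A regression on co-assayed BCL2-family reference pairs converts the normalised counts of each replicate to an apparent Kd. There are three technical replicates.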

Each scFv is VH, the linker GGGGSGGGGSGGGGS, VL, as in the parent Ab-95, and differs from it in the CDRs of the light chain only.
VH: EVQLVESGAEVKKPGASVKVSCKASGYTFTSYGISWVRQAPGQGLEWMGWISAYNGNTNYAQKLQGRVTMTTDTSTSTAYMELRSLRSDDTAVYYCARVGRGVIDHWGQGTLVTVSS
VL: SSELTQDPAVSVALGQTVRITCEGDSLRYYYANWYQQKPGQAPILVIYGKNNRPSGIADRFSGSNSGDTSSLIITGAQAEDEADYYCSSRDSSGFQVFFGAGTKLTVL

Changes read parent residue, position, new residue, counted from the first residue of the VL shown. Every variant below is changed at G24 of the VL (sequential numbering). Values are log10 of the apparent Kd in nM; lower means stronger binding. Where no diploid with the target was found in that replicate, the entry reads "ND": below detection, most likely a poor binder, though not proof of it.

With G24R+Y31A+G49W the result was 3.20, ND, ND. The variant G24E+L27E+Y31W gave ND, 3.76, ND. The variant G24L+R28V+V97G gave 4.18, 4.24, 4.30. For G24Q+Y31S, the assay gave 2.84, 3.28, 2.38. The variant G24I+S88T+G94N showed 3.62, 5.60, ND.

For G24E+R28Q+A32P, the assay gave 2.07, 1.53, 1.60. For G24H+Y31K+P54G, the assay gave ND, ND, ND. The variant G24F+L27I showed 2.77, 3.20, ND. The variant G24S+G94L+F98V gave 2.92, 3.21, 3.65. The variant E23I+G24F showed ND, 3.43, ND.

The variant G24C+L27W+Y30S showed 3.19, 2.95, 2.87. For G24C+Q96H+V97S, the assay gave 1.90, 1.85, 1.28. For G24I+D91C+G94N, the assay gave ND, ND, ND. The variant G24N+S55H+D91S gave 2.00, 1.88, 1.78. The variant G24S+A32W+S93I gave ND, 3.48, 4.25.

The variant G24Q+N33D+S93R showed ND, ND, ND. With G24Q+R90G+G94H the result was ND, ND, ND. With G24D+N33P+S55R the result was 3.10, ND, 3.09. The variant G24D+A32V+F98G showed 4.05, ND, ND. The variant G24Q+G94K+F95K gave 5.23, 4.11, ND.

The variant G24R+S26A+F98M showed 3.43, 3.41, 2.67. The variant G24I+G49P+S93K showed ND, ND, ND. The variant G24E+Y31K+S88H gave ND, ND, ND. With G24P+G49E+Q96C the result was 4.48, 5.81, ND. With G24L+S26M+S93P the result was 2.60, 2.39, 2.53.

The variant G24A+R53W+D91S showed ND, ND, ND. The variant G24A+N52A+S55F gave 2.98, 3.85, 4.16. The variant G24P+R28P+Y29W gave 5.05, 4.00, ND. The variant G24N+Y29Q+S88I gave 5.57, ND, ND. With G24D+S89Q the result was ND, ND, ND.

With G24H+S26C+P54F the result was 4.16, 4.37, ND.

Excerpt, the final 3 entries:

changes,"replicates, log10 nM"
G24N+Y29Q+S88I,"5.57, ND, ND"
G24D+S89Q,"ND, ND, ND"
G24H+S26C+P54F,"4.16, 4.37, ND"

As a blank, each scFv also met three strains without target: over library AAYL52, 28% of these pairings were detected, typically at 3.91 and seldom below 2.90. In this assay the parent's reference entry averaged 2.31; its copy inside this library read 2.25.